ALDH1A1 inh – inhibitors of human aldehyde dehydrogenase 1A1; P00352; Purified ALDH1A1, NADH fluorescence, propionaldehyde substrate; Potency, µM (top dose mostly 75.3 µM), inactives show at the highest dose activity, negative = inhibition, most hits filed as inhibitors; 7.3% of 220,000 active; AID 1030; active = well fitted inhibition curve with a large enough effect, not every such curve was filed as active; inconclusive = small, poorly fitted or top-dose-only effect, or another doubt; inactive = no such curve, though single readings can be large or run the other way;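 also: potency is read from the fitted curve at half-maximal effect; plate controls were no enzyme wells and a reference inhibitor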
Sfp PPTase inh – qHTS Assay for Inhibitors of Bacillus subtilis Sfp phosphopantetheinyl transferase (PPTase); 4'-phosphopantetheinyl transferase ffp (Bacillus subtilis), Q9F4F7; Biochemical Sfp PPTase activity, qHTS; Potency, µM, inactives show max response, negative = inhibition, hits mostly inhibitors; 310,000 compounds, 3.5% hits; AID 1490, 2009; active means well fitted inhibition curve with a large enough effect; inconclusive means small, poorly fitted or top-dose-only effect, or another doubt; inactive means no such curve, though single readings can be large or run the other way;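 further: the enzyme is Sfp with the accession as filed and its product quenches rhodamine fluorescence; potency means the concentration at half of the fitted maximal effect; 0% = enzyme reaction without inhibitor and -100% = no enzyme wells; top concentration of the series not given in the record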
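Compounds were incubated with enzyme (final 15 nM) for 15 min at room temperature before substrate addition started the reaction. Fluorescence at 525 nm excitation, 598 nm emission was recorded immediately and after 30 minutes.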
LMNA splice mod – changes lamin A minigene splicing in HeLa cells; HeLa LMNA splicing GFP/RFP minigene ratio, 48 h; Potency, µM (doses to about 46.1 µM), inactives show top-dose ratio change, negative = inhibition, actives largely listed as inhibitors; 0.01% of 200,000 active; AID 1487; active = well fitted inhibition curve with a large enough effect in the signal ratio, with a control signal flat, not every such curve was filed as active; inconclusive = small, poorly fitted or top-dose-only effect, or effect the other way, or a change in a side signal; the % refers to the signal ratio; also: potency is read from the fitted curve at half-maximal effect; % is scaled to controls: 0 for no effect and ±100 for the full control effect
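Read-out is the ratio of GFP to DsRed2 object intensity, acquired by 488 nm laser-scanning cytometry on HeLa lamin A-EGFP minigene reporter cells. Compound incubation 48 hrs at 37 °C in Opti-MEM with 2% FBS; DMSO 0.5% final.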
KDM4E inh – inhibitors of human JMJD2E histone demethylase | JMJD2E catalytic domain, FDH-coupled NADH fluorescence (FDH is formaldehyde dehydrogenase) | Potency, µM (top dose mostly 57.1 µM), inactives show at the top dose activity change, negative = inhibition, actives largely listed as inhibitors | 1.6% of 230,000 active | AID 2147; active = well fitted inhibition curve with a large enough effect, not every such curve was filed as active; inconclusive = small, poorly fitted or top-dose-only effect, or another doubt; inactive = no such curve, though single readings can be large or run the other way;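 also: potency is read from the fitted curve at half-maximal effect; 0% = wells with enzyme and -100% = buffer wells without enzyme; nearly all actives have a fitted effect of over 50% in size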
miR-21 FLuc – miR-21 reporter, rising signal; Potency, µM (titrated, usually from 38.3 µM), without a hit: at the highest dose reporter change, positive = more light; AID 2288; 340,000 tested, under 10 active; HeLa miR-21 FLuc reporter, luciferase, 48 h; active = well fitted rising curve with a large enough effect; inconclusive = small, poorly fitted or top-dose-only effect; inactive = no such curve, though single readings can be large or run the other way;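 note: % of control where 0% means no effect; miR-21 action dims this reporter so a rising signal means less miR-21 action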
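Using DMEM plus 10% FBS, HeLa miR-21-FLuc cells are incubated with test compounds (final up to about 40uM) for 48 hours; firefly luciferase signal is then imaged following reagent-mediated lysis.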
G9a inh – G9a (human) methyltransferase inhibition; 8.8% of 350,000 active; Q96KQ7; G9a H3K9 monomethylation, AlphaScreen, 2 h; AID 504332; Potency, µM (doses to about 102 µM), inactives show top-dose activity, negative = inhibition, hits mostly inhibitors; also: potency is read from the fitted curve at half-maximal effect; % is scaled to controls: 0 for no effect and ±100 for the full control effect; nearly all actives have a fitted effect of over 75% in size
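G9a (20 nM) was preincubated 15 min with compound, then reacted 2 h at room temperature with 500 nM biotin-H3K9 peptide and 20 µM SAM. Monomethyl-H3K9 detected by AlphaScreen using anti-H3K9me1 antibody.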
The depositor's hits bear a star; ? = inconclusive; / = no result; ! = not confirmed by another sample; [ ] = another dose, or the depositor's remark. Only some compounds are listed: those with a hit (about 13% of all), similar ones and a draw of the others. Unless noted, calls follow the shape of the dose curve; as a rule, active = well fitted curve in the direction sought with a large enough effect; inconclusive = small, poorly fitted or top-dose-only effect, or another doubt; inactive = no such curve, though single readings can be large; an effect the other way counts as inactive or inconclusive.

Sequence of screens: ALDH1A1 inh, Sfp PPTase inh, LMNA splice mod, KDM4E inh, miR-21 FLuc, G9a inh
Cc1ccc(OCCn2cccc2/C=C2/C(=O)NC(=O)N(Cc3ccco3)C2=O)cc1
  /, ?, /, -3%, -24%, 50µM*
CCOC(=O)C1CCN(/C=C2/C(=O)NC(=O)N(Cc3ccco3)C2=O)CC1
  3.5µM*, ?, -10%, -6%, 1%, ?
Cn1cccc1/C=C1\C(=O)NC(=O)N(Cc2ccco2)C1=O
  ?, -20%, 3%[46 µM], -20%, 7%, ?
CCc1ccc(N2C(=O)NC(=O)/C(=C\c3cccn3CCOc3ccc(C(C)C)cc3)C2=O)cc1
  7%, 5%, 4%, 4%, -54%, 7.1µM*
CO[C@H]1[C@@H](O)CC(OC2[C@@H](O)CC(OC3[C@@H](O)C[C@H](OC4CC[C@@]5(C)C(CCC6C5CC(O)[C@]5(C)[C@H](C7=CC(=O)OC7)CCC65O)C4)O[C@@H]3C)O[C@@H]2C)O[C@@H]1C (stereo partly specified)
  /, -7%, /, /, /, 10%[12.7 µM]
Oc1ccc2[nH]cc(CCCCN3CC=C(c4ccccc4)CC3)c2c1
  -4%, 4%, /, 5%, /, ?
Nc1nc(N)c2nc(CNc3ccc(C(=O)NC(CCC(=O)O)C(=O)O)cc3)cnc2n1 (stereo unspecified)
  ?, 11%, ?, ?, /, 2.7µM*!
CC[C@H]1CN2CCc3cc(OC)c(OC)cc3[C@H]2C[C@@H]1C[C@H]1NCCc2c1[nH]c1ccc(O)cc21
  5%[13.5 µM], /, /, /, /, /
Cc1nc(-c2ccc(-c3ccc(C(=O)N4CCc5cc6c(cc54)C4(CCN(C)CC4)CO6)cc3)c(C)c2)no1
  3%, 63µM*, ?, -5%, /, -14%[12.7 µM]
COc1cccc(CN2CCNCC2)c1
  /, -2%, /, /, -4%, 79µM*
OCCN(Cc1ccccc1)Cc1cccc(F)c1
  -9%, ?, 4%, ?, 1%, 7.1µM*
CC(C)(C)c1o[nH]c(=O)c1C[C@H](N)C(=O)O
  3%, -3%, /, ?, /, /
Cn1cc(/C=C2\C(=O)NC(=O)N(c3ccccc3)C2=O)c2ccccc21
  /, -15%, /, /, 2%, -1%
CC(C)(C)n1cccc1/C=C1\C(=O)NC(=O)N(c2ccccc2)C1=O
  1.4µM*, -27%, 0%, 4%, -5%, ?
Cc1cc(C)cc(N2C(=O)NC(=O)/C(=C/c3cccn3-c3ccc(Cl)cc3)C2=O)c1
  9%, 50µM*, ?, -2%, -1%, 32µM*
Cc1cccc(N2C(=O)NC(=O)/C(=C\c3cccn3-c3ccc(Cl)cc3)C2=O)c1
  -3%, 50µM*, ?, 9%, 9%, 24%[0.501 µM]
C[C@H](N)Cc1cnc[nH]1
  -3%, 6%, /, -13%, /, -39%[59 µM]
CCn1c(O)c(C(c2ccccn2)c2c(O)n(CC)c(=S)[nH]c2=O)c(=O)[nH]c1=S
  25µM*, 50µM*, 1%, ?, 0%, ?
O=c1[nH]c(=S)[nH]c(O)c1C(c1ccccn1)c1c(O)[nH]c(=S)[nH]c1=O
  ?, 25µM*, /, ?, 2%, 5µM*
CCn1c(O)c(C=NCc2ccccc2)c(=O)[nH]c1=S
  8%, 5%, /, 0%, -2%, ?
CC1CC(C)CN(CC(=O)c2ccc(OC(F)F)cc2)C1 (stereo unspecified)
  1.3µM*, 0%, ?, 0%, -2%, ?
C#C[C@]1(O)CC[C@H]2[C@@H]3CCC4=CC(=O)CCC4(C)[C@H]3CCC21C (stereo partly specified)
  5%, 30%, /, /, /, -30%[59 µM]
[Cd+2].[Cl-].[Cl-]
  4µM*, /, /, /, /, /
CCc1ccc(C(=O)NN(C(=O)c2cc(C)cc(C)c2)C(C)(C)C)cc1
  3%, 22%, /, 9%, /, /
CCOC(=O)c1ccc(N2C(=O)CC(N3CCC(O)(c4ccc(Br)cc4)CC3)C2=O)cc1 (stereo unspecified)
  1.6µM*, 6%, 6%, -1%, 0%, 50µM*
CCOC(=O)c1ccc(N2C(=O)CC(N3CCC(O)(c4ccc(Cl)cc4)CC3)C2=O)cc1 (stereo unspecified)
  7.9µM*, 8%, 0%, 8%, 3%, ?
C#CCN1CC(=O)N(COC(=O)[C@@H]2[C@@H](C=C(C)C)C2(C)C)C1=O
  /, 12%, ?, /, /, 35%[59 µM]
C=C1[C@@H]2C[C@@]3([C@H]1O)[C@H]1C[C@@H]4[C@@]5(C)CC[C@H](O)[C@]4([C@H]1N(CC)C5)[C@H]3C[C@H]2O
  4%[20.9 µM], 17%, -7%, -21%[25.5 µM], /, 21%[21.5 µM]
CCN(CC)c1nc2c(C)cccn2c(=O)c1C=C1C(=O)NC(=O)NC1=O
  ?, 2%, /, ?, -1%, ?
CC(C)CN(CC(C)C)c1ccc(C=C2C(=O)NC(=S)NC2=O)cc1[N+](=O)[O-]
  11µM*, 20µM*, 12%, ?, -17%, ?

Reformatted tab-delimited: 5 of the compounds above.
structure	ALDH1A1 inh	Sfp PPTase inh	LMNA splice mod	KDM4E inh	miR-21 FLuc	G9a inh
[Cd+2].[Cl-].[Cl-]	4µM*	/	/	/	/	/
CCc1ccc(C(=O)NN(C(=O)c2cc(C)cc(C)c2)C(C)(C)C)cc1	3%	22%	/	9%	/	/
CCOC(=O)c1ccc(N2C(=O)CC(N3CCC(O)(c4ccc(Br)cc4)CC3)C2=O)cc1 (stereo unspecified)	1.6µM*	6%	6%	-1%	0%	50µM*
CCOC(=O)c1ccc(N2C(=O)CC(N3CCC(O)(c4ccc(Cl)cc4)CC3)C2=O)cc1 (stereo unspecified)	7.9µM*	8%	0%	8%	3%	?
C#CCN1CC(=O)N(COC(=O)[C@@H]2[C@@H](C=C(C)C)C2(C)C)C1=O	/	12%	?	/	/	35%[59 µM]

Following part:
Sequence of screens: ALDH1A1 inh, Sfp PPTase inh, LMNA splice mod, KDM4E inh, miR-21 FLuc, G9a inh
CCN(CC)c1ccc(C=C2C(=O)NC(=S)NC2=O)cc1
  0.11µM*, 3.2µM*, ?, ?, 0%, 7.9µM*
COC(=O)/C=C/C(=O)N[C@@H]1CC[C@@]2(O)[C@H]3Cc4ccc(O)c5c4[C@@]2(CCN3CC2CC2)[C@H]1O5
  -8%, -3%, /, /, /, 31%[59 µM]
c1ccc2c(CCNC3=NCCC3)c[nH]c2c1
  3%, ?, 13%, 6%, 0%, 1%[59 µM]
c1ccc2c(CCNC3CCCCC3)c[nH]c2c1
  ?, 50µM*, /, 4%, -7%, 13µM*
Cn1ccnc1
  7%, /, -4%, 7%, /, 11%[12.7 µM]
Cc1cc(S(=O)(=O)NCC(C)C)ccc1OCC(=O)N1CCN(Cc2ccccc2)CC1
  18µM*, -15%, ?, 4%, 13%, -40%[12.7 µM]
CSc1ccc(C(=O)C2CCCN(Cc3cccnc3)C2)cc1 (stereo unspecified)
  -2%, 15%, /, -4%, 12%, 2%
CSc1ccc(C(=O)C2CCCN(Cc3cc4ccccc4[nH]3)C2)cc1 (stereo unspecified)
  -13%, -12%, ?, -10%, 13%, 16µM*
NC(N)=NN=C(/C=C/c1ccc([N+](=O)[O-])o1)/C=C/c1ccc([N+](=O)[O-])o1
  /, 50µM*, /, /, /, ?
COC(=O)C1=C(C)OC(N)=C(C#N)C12C(=O)Nc1ccccc12 (stereo unspecified)
  0%, ?, /, -6%, 0%, /
COC(=O)CC1=C(C(=O)OC)C2(C(=O)Nc3c(C)cccc32)C(C#N)=C(N)O1 (stereo unspecified)
  10µM*, -5%, 8%, 10%, 1%, ?
CCCC1=C(C(=O)OCC)C2(C(=O)Nc3ccccc32)C(C#N)=C(N)O1 (stereo unspecified)
  11µM*, 10%, -7%, -1%, 2%, -23%[59 µM]
c1ccc2c(c1)c1cccc3ccc4cccc2c4c31
  ?, /, /, /, /, 6%[0.501 µM]
